In one assay the test system is Ramos. Kind of assay: Antiproliferative activity against human Ramos cells assessed as reduction in cell growth incubated for 48 hrs by MTS assay. Format: functional, cell-based. Background: Formazan colour is commonly taken as a measure of viable cells.
The subject of the next assay is Raji. Kind of assay: Antiproliferative activity against human Raji cells assessed as reduction in cell growth incubated for 48 hrs by MTS assay. The assay is classed as functional, cell-based.

`C=CC(=O)Nc1cccc(Nc2nc(Nc3ccc(OCCSC(=S)NCc4cccnc4)cc3)ncc2F)c1`: the Activity result in the assay with Ramos and with Raji was “Dose-dependent effect” throughout.

Source of the values: ChEMBL document CHEMBL4346765, “Design, synthesis and biological evaluation of novel dithiocarbamate-substituted diphenylaminopyrimidine derivatives as BTK inhibitors” (Bioorg Med Chem, 2019).
